In PubChem BioAssay AID624171 (National Center for Advancing Translational Sciences (NCATS), 2012):
This is a selection; strong and weak results do not stand in their true shares. Activity calls are given as the source filed them. The call rests on the fitted dose curve; in most records, active means well fitted activation curve with a large enough effect; inconclusive means small, poorly fitted or top-dose-only effect; inactive means flat fitted curve, though single readings scatter.

experiment: qHTS of Nrf2 Activators; conditions: AREc32 ARE-luciferase reporter (MCF7-derived line), luminescence, 24 h; at 46.1 µM (top of the series) unless noted; further: % of control where 0% means no effect; nearly all actives have a fitted effect of over 65% in size
Procedure, shortened: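 For detection, Steady-Glo was added and plates sat 30 min at RT; before that, AREc32_Fluc cells grown overnight in OPTI-MEM/5% FBS had been treated with 23 nL compound for 24 hr at 37 deg C.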

| Compound | activation |
| --- | --- |
| COc1ccccc1CNC(=O)COC(=O)C(O)(c1ccccc1)c1ccccc1 | inactive: -0.771% |
| CC(C)(C)C(=O)NC(Sc1ncccn1)C(Cl)(Cl)Cl (configuration not stated) | inactive: -0.0193% |
| Clc1n[nH]nc1-c1nn[nH][15n]1 | inactive: 0.0982% |
| O=P1(N(CCCl)CCCl)NCCC(C(F)(F)F)O1 (configuration not stated) | inactive: -0.227% |
| CCOP(=O)(NC(=NC(C)c1ccccc1)NC(C)c1ccccc1)OCC (configuration not stated) | inactive: -0.832% |
| CCC1=CC2Cc3nc4ccc(Cl)cc4c(N)c3C(C1)C2 (configuration not stated) | inactive: -5.27% |
| O=P1(Nc2ccccn2)COc2ccccc2OC1 | inactive: 4.75% |
| CN(CCCl)Cc1cc(Cl)c(NC2=NCCN2)c(Cl)c1 | inactive: 0.636% |
| CCOP(=O)(Nc1ccc(C)cn1)OCC | inactive: 0.386% |
| CCOP(=O)(Nc1cccc2ccccc12)OCC | inactive: 3.94% |
| COc1cc(C2NCCC3(OCCO3)C2(C)C)cc(OC)c1OC (configuration not stated) | inactive: -0.587% |
| Cc1ccc(NCCc2c([N+](=O)[O-])cc([N+](=O)[O-])cc2[N+](=O)[O-])cc1 | inactive: 24.2% |
| Nc1cccc2c([As](=O)(O)O)cccc12 | inactive: -0.377% |
| CCCOP(=S)(Nc1nc(N)cc(=O)[nH]1)OCCC | inactive: -0.771% |
| O=[As](O)(c1cccc(O)c1)c1cccc(O)c1 | inactive: 2.76% |
| Cc1cccc(OCC(=O)OC2CN3CCC2CC3)c1 (configuration not stated) | inactive: 0.606% |
| O=C(OC1CN2CCC1CC2)c1ccc(Cl)cc1 (configuration not stated) | inactive: -0.47% |
| CS(=O)(=O)c1ccc(Cl)c(NC(=O)COC(=O)C(O)(c2ccccc2)c2ccccc2)c1 | inactive: 0.0573% |
| COc1cc(C(=O)NCC2(N3CCOCC3)CCCCC2)cc(Cl)c1OC(C)C | inactive: 2.6% |
| O=[As](O)(O)c1cccnc1 | inactive: -0.29% |
| CN(C(=O)Cc1ccccc1)[C@@H]1CC[C@]2(CCCO2)C[C@H]1N1CCCC1 | inactive: 3.53% |
| CCOP1(=S)c2c(C)nn(CCC#N)c2N=C(c2ccc(F)cc2)N1C (configuration not stated) | inactive: -0.352% |
| N#CCCN(C(=O)COC(=O)C(O)(c1ccccc1)c1ccccc1)c1ccc(F)cc1 | inactive: 0.096% |
| CN(C(=O)Cc1ccc(Cl)c(Cl)c1)[C@H]1CC[C@@]2(CCCO2)C[C@@H]1N1CCCC1 | inactive: -1.11% |

| Compound | activation |
| --- | --- |
| CN(C)C(=O)c1cc([N+](=O)[O-])cc2c1-c1c(cc([N+](=O)[O-])cc1[N+](=O)[O-])C2=O | inactive: -1.31% |
| O=[N+]([O-])c1ccc2c(c1)nnn2O | inactive: 0.295% |
| NC(=O)Nc1ccc([As](=O)(O)O)cc1 | inactive: 0.678% |
| O=C(O)COc1ccc([As](=O)(O)O)cc1[N+](=O)[O-] | inactive: -0.853% |
| Nc1ccccc1[As](=O)(O)c1ccccc1 | inactive: -0.467% |
| O=P(Nc1nccs1)(Oc1ccccc1)Oc1ccccc1 | inactive: -1% |
| CCOP1(=S)c2c(C)nn(CCC#N)c2N=C(c2ccccc2F)N1C (configuration not stated) | inactive: -0.192% |
| O=[N+]([O-])c1cc([N+](=O)[O-])c(-c2ccn[nH]2)s1 | inactive: -1.05% |
| CCN(CC)C(=S)SC(NC=O)C(Cl)(Cl)Cl (configuration not stated) | inactive: 2.01% |
| O=C(OC1CN2CCC1CC2)c1cccc2[nH]cnc12 (configuration not stated) | inactive: -0.863% |
| CC(C)NC(=O)NP(=O)(Oc1ccccc1)Oc1ccccc1 | inactive: -0.474% |
| ClCCSc1nnc(-c2cccnc2)o1 | inactive: -0.198% |
| CC(C)c1ccc(OP(=O)(Nc2ccccn2)Oc2ccccc2F)cc1 (configuration not stated) | inactive: -0.123% |
| COC(=O)C1(C)COP(=O)(N2CCCCCC2)OC1 (configuration not stated) | inactive: 0.255% |
| Cc1ccc(OP(=O)(Nc2ccc([N+](=O)[O-])cn2)Oc2ccc(C)cc2)cc1 | inactive: -0.399% |
| [N-]=[N+]=NC1CCCCC1NC(=O)c1cc([N+](=O)[O-])cc([N+](=O)[O-])c1 (configuration not stated) | inactive: -0.0083% |
| Cc1ccc2nc3c(c(C)c2c1)CC(C(Cl)Cl)S3 (configuration not stated) | inactive: 5.23% |
| COc1cc(C(=O)NCC2(N3CCOCC3)CCCCC2)ccc1OCC(C)C | inactive: -1.11% |
| O=[N+]([O-])c1ccc(-c2cc([N+](=O)[O-])c(O)c([N+](=O)[O-])c2)cc1 | inactive: 4.21% |
| O=[As](O)(c1ccc(O)cc1)c1ccccc1O | inactive: 0.121% |
| C[As](=O)(O)c1cccc(C(=O)O)c1 | inactive: -0.718% |
| O=[N+]([O-])c1cc(Oc2ccc([N+](=O)[O-])cc2C(F)(F)F)cc([N+](=O)[O-])c1 | inactive: 3.94% |
| COc1ccc(N/C(=N/P(=O)(N2CCOCC2)N2CCOCC2)N2CCOCC2)cc1 | inactive: 0.175% |
| O=P1(N(CCCl)CCCl)Nc2ccccc2N1 | inactive: 3.6% |

| Compound | activation |
| --- | --- |
| O=P1(N(CCCl)CCCl)OCCCN1CCCl (configuration not stated) | inactive: -0.414% |
| COc1cc(I)ccc1[As](=O)(O)O | inactive: -0.0913% |
| COc1ccc2nc(NP(=O)(c3ccccc3)c3ccccc3)sc2c1 | inactive: -0.0589% [at 9.22 µM] |
| Cc1c2c(nc3ccccc13)SC(C(Cl)Cl)C2 (configuration not stated) | inactive: 9.83% |
| Cc1cc(=O)[nH]c(N[N+](=O)[O-])n1 | inactive: 0.0044% |
| O=C(OC1CN2CCC1CC2)C12CC3CC(CC(C3)C1)C2 (configuration not stated) | inactive: 0.113% |
| CCC(C)N(CC(C)C)C(=S)SC(NC(C)=O)C(Cl)(Cl)Cl (configuration not stated) | inactive: 3.3% |
| O=C(OC1CN2CCC1CC2)c1cccc([N+](=O)[O-])c1 (configuration not stated) | inactive: 0.173% |
| CCOC(=O)c1ccc(NC(=O)C(C)(CCl)SC)cc1 (configuration not stated) | inactive: 2.93% |
| O=C(O)C(=O)c1ccc(N(CCCl)CCCl)cc1 | inactive: -0.765% |
| O=C(Nc1ccncc1[N+](=O)[O-])c1ccc([N+](=O)[O-])cc1[N+](=O)[O-] | inactive: 0.858% |
| O=C(COc1ccccc1)OC1CN2CCC1CC2 (configuration not stated) | inactive: 0.312% |
| COC(=O)C1(C)COP(=O)(N2CCCC2)OC1 (configuration not stated) | inactive: -0.43% |
| COP1(=S)c2c(C)nn(CCC#N)c2N=C(c2ccc(F)cc2)N1C (configuration not stated) | inactive: 0.509% |
| Cc1cc(SC(NC=O)C(Cl)(Cl)Cl)ncn1 (configuration not stated) | inactive: 17% |
| O=P(Nc1ccccn1)(c1cccc2ccccc12)c1cccc2ccccc12 | inactive: 0.4% |
| O=[N+]([O-])c1ccc(Nc2ccc(Oc3ccc([N+](=O)[O-])cc3[N+](=O)[O-])cc2)c([N+](=O)[O-])c1 | inactive: -0.423% |
| CCOC(=O)Nc1cccc([As](=O)(O)O)c1 | inactive: -0.571% |
| COP(=O)(OC)N1CC1c1ccccc1 (configuration not stated) | inactive: -0.118% |
| Cc1cc(SC(NC(=O)c2ccccc2)C(Cl)(Cl)Cl)nc(C(C)C)n1 (configuration not stated) | inactive: 3.46% |
| CCCCOc1ccc(C(=O)NCC2(N3CCCCC3)CCCCC2)cc1OC | inactive: 0.145% |
| O=C(O)C(O)c1ccc(N(CCCl)CCCl)cc1 (configuration not stated) | inactive: 1.66% |
| CCOC(=O)Nc1ccc([As](=O)(O)O)c(O)c1 | inactive: 0.0692% |
| CC1CCNP(=O)(N(CCCl)CCCl)O1 (configuration not stated) | inactive: 0.258% |
